From PubChem BioAssay (NCI)
Where “and” joins values, the source holds several entries; their conditions need not be identical. Equal entries are not always repeated. This is a selection; strong and weak results do not stand in their true shares.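 The test compound was applied at a single concentration to cells in 96-well plates for 48 hours, and percent growth was recorded.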 Some salts and complexes are drawn in separate pieces, as the source files them; their charges need not balance. Calls of active or inactive are those of the source. Rule for the calls: active = growth percent below 10; inactive = the rest.

How the values were obtained:
Test in all cases: NCI-60 one-dose screen, 48 h (100 = growth as untreated, 0 = no growth, -100 = all killed)
Conditions in all cases: 10 µM
NCI-H23 lung = tested on: NCI-H23 lung
NCI-H226 lung = tested on: NCI-H226 lung
NCI-H322M lung = tested on: NCI-H322M lung
HOP-62 NSCLC = tested on: HOP-62 NSCLC
NCI-H460 lung = tested on: NCI-H460 lung
HOP-92 NSCLC = tested on: HOP-92 NSCLC
NCI-H522 lung = tested on: NCI-H522 lung
A549/ATCC NSCLC = tested on: A549/ATCC NSCLC
786-0 renal = tested on: 786-0 renal
COLO 205 colon = tested on: COLO 205 colon
DU-145 prostate = tested on: DU-145 prostate
K-562 leukemia = tested on: K-562 leukemia
MALME-3M melanoma = tested on: MALME-3M melanoma
MDA-MB-231 breast = tested on: MDA-MB-231 breast
RXF 393 renal = tested on: RXF 393 renal
SF-268 CNS = tested on: SF-268 CNS
SF-295 CNS = tested on: SF-295 CNS
SF-539 CNS = tested on: SF-539 CNS
UACC-257 melanoma = tested on: UACC-257 melanoma
M14 melanoma = tested on: M14 melanoma

Structure (SMILES) | growth (NCI-H23 lung) | growth (NCI-H226 lung) | growth (NCI-H322M lung) | growth (HOP-62 NSCLC) | growth (NCI-H460 lung) | growth (HOP-92 NSCLC) | growth (NCI-H522 lung) | growth (A549/ATCC NSCLC) | growth (786-0 renal) | growth (COLO 205 colon) | growth (DU-145 prostate) | growth (K-562 leukemia) | growth (MALME-3M melanoma) | growth (MDA-MB-231 breast) | growth (RXF 393 renal) | growth (SF-268 CNS) | growth (SF-295 CNS) | growth (SF-539 CNS) | growth (UACC-257 melanoma) | growth (M14 melanoma)
Nc1cccc(Cl)c1.O=[N+]([O-])c1cc([N+](=O)[O-])c(O)c([N+](=O)[O-])c1 | inactive: 103% | inactive: 97.9% | inactive: 100% | inactive: 97.9% | inactive: 110% | inactive: 98.4% | inactive: 106% | inactive: 105% | inactive: 97.5% | inactive: 119% | inactive: 113% | inactive: 97.2% | inactive: 97.9% | inactive: 94.9% | inactive: 104% | inactive: 102% | inactive: 101% | inactive: 97.1% | inactive: 103% | inactive: 97%
O=C(OCCN1CCCCCCCC1)C(O)(c1ccccc1)c1ccccc1 | inactive: 105% | inactive: 107% | inactive: 104% | inactive: 96.5% | inactive: 111% | inactive: 96.7% | inactive: 90.7% | inactive: 103% | inactive: 96.7% | inactive: 108% | inactive: 105% | inactive: 99.3% | inactive: 107% | inactive: 95.1% | inactive: 132% | inactive: 106% | inactive: 110% | inactive: 95.4% | inactive: 98.8% | inactive: 105%
O=[N+]([O-])OCCOc1ccc([N+](=O)[O-])cc1[N+](=O)[O-] | inactive: 110% | inactive: 99.8% | inactive: 111% | inactive: 105% | inactive: 107% | inactive: 93.7% | inactive: 86.8% | inactive: 99.7% | inactive: 110% | inactive: 113% | inactive: 120% | inactive: 97.8% | inactive: 116% | inactive: 116% | inactive: 103% | inactive: 104% | inactive: 103% | inactive: 96.5% | inactive: 98.9% | inactive: 112%
O=C1N([N+](=O)[O-])CCN1[N+](=O)[O-] | inactive: 108% | inactive: 101% | inactive: 107% | inactive: 96.8% | inactive: 103% | inactive: 84.3% | inactive: 106% | inactive: 96.3% | inactive: 103% | inactive: 98.1% | inactive: 115% | inactive: 116% | inactive: 115% | inactive: 107% | inactive: 109% | inactive: 106% | inactive: 101% | inactive: 101% | inactive: 87.5% | inactive: 97.6%
O=C(O)C1(O)c2ccccc2-c2ccccc21 | inactive: 98.4% and inactive: 98% | inactive: 92.9% and inactive: 86% | inactive: 97.1% and inactive: 116% | inactive: 99.3% and inactive: 93.6% | inactive: 102% and inactive: 104% | inactive: 93.1% | inactive: 59.2% and inactive: 88.7% | inactive: 81.9% and inactive: 97.4% | inactive: 98.2% and inactive: 99% | inactive: 98.4% | inactive: 107% | inactive: 93.4% and inactive: 78.5% | inactive: 91.8% and inactive: 110% | inactive: 91.4% and inactive: 93.1% | inactive: 114% and inactive: 87.5% | inactive: 104% and inactive: 107% | inactive: 129% | inactive: 99.9% and inactive: 93.9% | inactive: 86.8% and inactive: 99.1% | inactive: 97.5% and inactive: 96.8%
CP(=O)(OCCCl)N(CCCl)CCCl (stereo not given) | inactive: 103% | inactive: 101% | inactive: 113% | inactive: 92.5% | inactive: 104% | inactive: 97% | inactive: 60.8% | inactive: 102% | inactive: 100% | inactive: 116% | inactive: 107% | inactive: 84.9% | inactive: 100% | inactive: 120% | inactive: 104% | inactive: 103% | inactive: 93.3% | inactive: 85.8% | inactive: 101% | inactive: 95.7%
CCN(C)CC.O=[N+]([O-])c1cc([N+](=O)[O-])c(O)c([N+](=O)[O-])c1 | inactive: 98.4% | inactive: 100% | inactive: 104% | inactive: 89% | inactive: 107% | inactive: 105% | inactive: 79.4% | inactive: 110% | inactive: 96.5% | inactive: 104% | inactive: 108% | inactive: 107% | inactive: 93.8% | inactive: 101% | inactive: 119% | inactive: 99.8% | inactive: 95.3% | inactive: 91.9% | inactive: 111% | inactive: 93.7%
O=[N+]([O-])c1cc([N+](=O)[O-])c(O)c([N+](=O)[O-])c1.c1ccc([I+]c2ccccc2)cc1 | inactive: 42.3% | inactive: 70.5% | inactive: 68.4% | inactive: 41.7% | inactive: 70.9% | inactive: 37.4% | inactive: 67.7% | inactive: 55.4% | inactive: 51.9% | inactive: 59.1% | inactive: 90% | inactive: 32.1% | inactive: 64.9% | inactive: 72.5% | inactive: 51.1% | inactive: 57.8% | inactive: 59.8% | inactive: 67.8% | inactive: 59.9% | inactive: 58.5%
Cc1c([N+](=O)[O-])c(C)c([N+](=O)[O-])c(C)c1[N+](=O)[O-] | inactive: 103% | inactive: 117% | inactive: 111% | inactive: 105% | inactive: 111% | inactive: 103% | inactive: 112% | inactive: 110% | inactive: 112% | inactive: 135% | inactive: 109% | inactive: 94.3% | inactive: 117% | inactive: 113% | inactive: 127% | inactive: 97.2% | inactive: 104% | inactive: 108% | inactive: 118% | inactive: 110%
O=[N+]([O-])N(CCN(CC(Br)([N+](=O)[O-])[N+](=O)[O-])[N+](=O)[O-])CC(Br)([N+](=O)[O-])[N+](=O)[O-] | inactive: 99.8% | inactive: 97.2% | inactive: 95.9% | inactive: 90.8% | inactive: 106% | inactive: 113% | inactive: 96.4% | inactive: 95.8% | inactive: 97.7% | inactive: 104% | inactive: 113% | inactive: 86.7% | inactive: 89.9% | inactive: 115% | inactive: 115% | inactive: 98.9% | inactive: 86.2% | inactive: 94.4% | inactive: 85.7% | inactive: 98.7%
Cc1c([N+](=O)[O-])cc([N+](=O)[O-])c(Br)c1[N+](=O)[O-] | inactive: 93.8% | inactive: 97.3% | inactive: 94.8% | inactive: 102% | inactive: 99.7% | inactive: 98.8% | active: -78.9% | inactive: 97.1% | inactive: 104% | active: -76.8% | inactive: 87.6% | inactive: 13.7% | active: -31.1% | inactive: 91.9% | inactive: 16.6% | inactive: 103% | inactive: 110% | inactive: 115% | inactive: 76% | inactive: 29.3%
OCCSCCO | inactive: 103% | inactive: 108% | inactive: 105% | inactive: 114% | inactive: 119% | inactive: 88.6% | inactive: 114% | inactive: 101% | inactive: 94.7% | inactive: 107% | inactive: 117% | inactive: 116% | inactive: 90.5% | inactive: 101% | inactive: 121% | inactive: 111% | inactive: 101% | inactive: 114% | inactive: 113% | inactive: 95.6%
Nc1cc([As](Cl)Cl)cc(N)c1O | inactive: 66.4% | inactive: 112% | inactive: 122% | inactive: 90.8% | inactive: 103% | inactive: 66.4% | inactive: 21.3% | inactive: 91.8% | inactive: 72.2% | inactive: 88.7% | inactive: 102% | inactive: 16.9% | inactive: 66.7% | inactive: 58.4% | inactive: 83.3% | inactive: 71.3% | inactive: 107% | inactive: 77.7% | inactive: 69.5% | inactive: 82.3%
CC(C)N(CCCl)C(C)C | inactive: 99.1% | inactive: 105% | inactive: 120% | inactive: 118% | inactive: 105% | inactive: 93.9% | inactive: 104% | inactive: 93% | inactive: 108% | inactive: 119% | inactive: 108% | inactive: 115% | inactive: 120% | inactive: 108% | inactive: 104% | inactive: 110% | inactive: 115% | inactive: 112% | inactive: 96.1% | inactive: 106%
CCN(CC)CCOC(=O)C(O)(c1ccccc1)c1cc(C)cc(C)c1C (stereo not given) | inactive: 110% | inactive: 106% | inactive: 117% | inactive: 95.8% | inactive: 112% | inactive: 87.9% | inactive: 92.6% | inactive: 90.8% | inactive: 92.8% | inactive: 100% | inactive: 113% | inactive: 91.9% | inactive: 131% | inactive: 86% | inactive: 99.9% | inactive: 102% | inactive: 107% | inactive: 101% | inactive: 110% | inactive: 98.9%
